In PubChem BioAssay AID1531 (NMMLSC, 2009) one finds binding response (% of control) data, which are given here for 83 molecules.

Structures are written as SMILES. The entries are a selection whose mix differs from that of the whole data set. Some salts or complexes appear as unconnected parts, following the source record. Active and inactive are the calls of the source. Rule as the data show it: active = binding response below about 67% or above about 130%; inconclusive = no clear call, values can overlap the other calls; inactive = in between.

This assay addresses Mitogen-activated protein kinase kinase kinase 2 (Homo sapiens) (UniProt Q9Y2U5). Nature of the assay: wildtype MEKK2 PB1-MEK5 interaction, increase or decrease – biochemical, multiplex bead flow cytometry, Alexa488-MEK5, primary screen (AID 1531). As to conditions: Alexa488-MEK5 binding to MEKK2 WT, at 10 µM, actives lie on both sides. For orientation: A flow cytometer gives signals particle by particle.
Regarding `Cc1nc2ccc3ccccc3c2s1.O=[N+]([O-])c1cc([N+](=O)[O-])c(O)c([N+](=O)[O-])c1`, the binding response (% of control) is inactive: 106%.
The value for `O=[N+]([O-])c1cc([N+](=O)[O-])c(-n2nnc3ccccc32)c([N+](=O)[O-])c1` was inactive: 95%; that for `CN1CCCCC1COC(=O)C1(O)c2ccccc2CCc2ccccc21` (stereo not drawn) was inactive: 95%; that for `COc1ccccc1OP(C)(=O)Nc1c(C)cccc1C` (stereo not drawn) was active: 1% [inhibitor].
The value for `CP(=O)(Nc1ccc(SC(F)(F)F)cc1)Oc1ccccc1` (stereo not drawn) was inactive: 101%.
On to `CCCOc1ccc(NP(C)(=O)Oc2ccc(Cl)cc2)cc1` (stereo not drawn), for which the binding response (% of control) is inactive: 91%.
The value for `CCOC(=O)C(CC)C1=NC(C)(C)Cc2ccccc21.O=[N+]([O-])c1cc([N+](=O)[O-])c(O)c([N+](=O)[O-])c1` (stereo not drawn) was inactive: 124%; that for `O=[N+]([O-])c1cc([N+](=O)[O-])c(Nc2nnnn2CCO)c([N+](=O)[O-])c1` was inactive: 104%; that for `CC1=NCCc2c1[nH]c1ccccc21.O=[N+]([O-])c1cc([N+](=O)[O-])c(O)c([N+](=O)[O-])c1` was inactive: 112%.
For `O=C(O)c1cccc(Nc2c([N+](=O)[O-])cc([N+](=O)[O-])cc2[N+](=O)[O-])c1` the value was inactive: 91%.
On to `Cc1ccc(C)c(NP(C)(=O)Oc2ccccc2)c1` (stereo not drawn), for which the binding response (% of control) is inactive: 103%.
As to `CP(=O)(Nc1cccc(Br)c1)Oc1ccccc1` (stereo not drawn), the binding response (% of control) is inactive: 98%.
In the case of `Cc1cc(C)cc(OP(C)(=O)Nc2ccccn2)c1` (stereo not drawn), the binding response (% of control) was inactive: 98%.
For `COc1ccccc1OP(C)(=O)Nc1cccc(Br)c1` (stereo not drawn) the value was inactive: 95%.
For `CCOC(=O)c1ccc(NP(C)(=O)Oc2cc(C)cc(C)c2)cc1` (stereo not drawn) the value was inactive: 103%.
As for `Cc1cc(C)cc(OP(C)(=O)Nc2ccc(C)cc2C)c1` (stereo not drawn), the binding response (% of control) was inactive: 107%.
The value for `CCN(CC)CCCOC(=O)C(O)(c1ccccc1)c1ccccc1` was inactive: 85%.
For `COc1ccccc1OP(C)(=O)Nc1ccc(C)cc1` (stereo not drawn), the binding response (% of control) is inactive: 98%.
The value for `CCOC(=O)c1ccc(NP(C)(=O)Oc2ccccc2)cc1` (stereo not drawn) was inactive: 97%.
For `Cc1cc(C)cc(OP(C)(N)=O)c1` (stereo not drawn) the value was inactive: 97%.
For `COc1ccccc1OP(C)(=O)Nc1cc(Cl)ccc1C` (stereo not drawn) the value was inactive: 102%; for `O=[N+]([O-])c1ccc2c(c1)C=Nc1ccccc1O2`, inactive: 103%; for `Cc1cccc(C)c1OP(C)(N)=O` (stereo not drawn), inactive: 96%.
With `CC(C)(C)c1ccc(OP(C)(=O)Nc2ccc(SC(F)(F)F)cc2)cc1` (stereo not drawn), the binding response (% of control) is inactive: 101%.
The value for `CP(=S)(Nn1cnnc1)Oc1ccccc1` (stereo not drawn) was inactive: 100%; that for `CP(=O)(Nc1ccccc1Br)Oc1ccccc1` (stereo not drawn) was inactive: 99%; that for `COc1ccccc1OP(C)(=O)Nc1ccccc1` (stereo not drawn) was inactive: 96%.
The value for `CCOC(=O)c1ccc(NP(C)(=O)Oc2ccc(OC)cc2)cc1` (stereo not drawn) was inactive: 99%; that for `CCOP(C)(=S)SCC(=O)NC(C)C(=O)O` (stereo not drawn) was inactive: 95%.
For `CP(=O)(Nc1ccccn1)Oc1ccc(Cl)cc1` (stereo not drawn) the value was inactive: 100%; for `CP(=O)(Oc1ccccc1)OC(c1ccccc1)C(F)(F)F` (stereo not drawn), inactive: 101%.
As for `CP(=O)(Nc1ccc(SC(F)(F)F)cc1)Oc1ccc(Cl)cc1` (stereo not drawn), the binding response (% of control) was inactive: 92%.
As for `Cc1cccc(C)c1OP(C)(=O)Nc1ccc(SC(F)(F)F)cc1` (stereo not drawn), the binding response (% of control) was inactive: 105%.
For `Cc1cc(C)cc(OP(C)(=O)Nc2ccc(SC(F)(F)F)cc2)c1` (stereo not drawn) the value was inactive: 101%.
Consider `CCc1ccc(OP(C)(=O)N2CCN(c3ccc([N+](=O)[O-])cc3)CC2)cc1` (stereo not drawn), for which the binding response (% of control) was inactive: 90%.
For `CP(=O)(NC(=O)Nc1ccccc1)Oc1ccccc1` (stereo not drawn) the value was inactive: 95%; for `CC(C)(C)c1ccc(OP(C)(=O)O)cc1`, inactive: 108%; for `COc1ccccc1OP(C)(=O)Nc1ccccc1Br` (stereo not drawn), inactive: 92%.
On to `CP(=O)(Nc1ccc(Cl)cc1)Oc1ccc(F)cc1` (stereo not drawn), for which the binding response (% of control) is inactive: 116%.
For `CN(C)C(=O)c1c([N+](=O)[O-])cc([N+](=O)[O-])cc1[N+](=O)[O-]` the value was inactive: 96%.
The value for `COc1ccc(OP(C)(=O)Nc2ccc(Br)cc2)cc1` (stereo not drawn) was inactive: 96%; that for `CCN(CC)CC(O)COC(=O)C(O)(c1ccccc1)C1CCCCC1` (stereo not drawn) was inactive: 104%.
For `O=C(OCCCN1CCCC1)C(O)(c1ccccc1)C1CCCCC1` (stereo not drawn) the value was inactive: 99%; for `COc1ccccc1OP(C)(=O)Nc1c(C)n(C)n(-c2ccccc2)c1=O` (stereo not drawn), inactive: 107%.
As to `CCc1ccc(OP(C)(=O)Nc2cccnc2)cc1` (stereo not drawn), the binding response (% of control) was inactive: 89%.
For `CP(=O)(Oc1ccccc1)N1CCOC1=O` (stereo not drawn) the value was inactive: 100%.
For `CCOC(=O)c1ccc(NP(C)(=O)Oc2ccc(Cl)cc2)cc1` (stereo not drawn) the value was inactive: 100%; for `CP(=O)(OC12CC3CC(CC(C3)C1)C2)OC12CC3CC(CC(C3)C1)C2`, inactive: 99%.
The value for `Cc1nc2ccc3ccccc3c2o1.O=[N+]([O-])c1cc([N+](=O)[O-])c(O)c([N+](=O)[O-])c1` was inactive: 93%.
`CP(=O)(OCCOc1ccccc1)OCCOc1ccccc1`: the binding response (% of control) was inactive: 106%.
Consider `CP(=O)(Nc1ccc(Cl)cc1Cl)Oc1ccccc1` (stereo not drawn), for which the binding response (% of control) is inactive: 94%.
The value for `Cc1cc(C)cc(OP(C)(=O)Nc2cccc(C(F)(F)F)c2)c1` (stereo not drawn) was inactive: 90%; that for `COc1ccccc1OP(C)(=O)Nc1ccc(C)c(C)c1` (stereo not drawn) was inactive: 95%; that for `COc1ccc(OP(C)(=O)Nc2ccccc2Br)cc1` (stereo not drawn) was inactive: 93%.
For `O=[N+]([O-])c1cc([N+](=O)[O-])c(Nc2ccccn2)c([N+](=O)[O-])c1` the value was inactive: 89%; for `Cc1c(NP(C)(=O)Oc2ccc(C(C)C)cc2)c(=O)n(-c2ccccc2)n1C` (stereo not drawn), inactive: 111%.
Take `COc1ccccc1OP(C)(=O)Nc1ccc(C)cc1C` (stereo not drawn): the binding response (% of control) is inactive: 111%.
The value for `CP(=O)(Nc1ccccn1)Oc1ccccc1` (stereo not drawn) was inactive: 107%; that for `CCc1ccc(OP(C)(=O)O)cc1` was inactive: 107%; that for `COc1ccccc1OP(C)(=O)Nc1ccc(Br)cc1` (stereo not drawn) was inactive: 94%.
As for `COc1ccc(OP(C)(=O)Nc2ccccn2)cc1` (stereo not drawn), the binding response (% of control) is inactive: 109%.
`CN(C)CCOC(=O)C(O)(c1ccccc1)C1CCCC1` (stereo not drawn): the binding response (% of control) was inactive: 105%.
The value for `O=C(OC1CN2CCC1CC2)c1ccc([N+](=O)[O-])cc1` (stereo not drawn) was inactive: 98%.
Regarding `O=C(OCCN1CCN(CCOCc2ccccc2)CC1)C(O)(c1ccccc1)c1ccccc1`, the binding response (% of control) was inactive: 98%.
For `COc1ccc2c(c1O)-c1c(O)c(OC)cc3c1[C@H](C2)[N+](C)(C)CC3.O=[N+]([O-])c1cc([N+](=O)[O-])c([O-])c([N+](=O)[O-])c1[O-]` the value was inactive: 97%; for `CP(=O)(Nc1ccccc1F)Oc1ccccc1` (stereo not drawn), inactive: 104%; for `CC(C)c1ccc(OP(C)(=O)Nc2ccc(SC(F)(F)F)cc2)cc1` (stereo not drawn), inactive: 97%.
For `CCN(CC)CCCOC(=O)C(O)(c1ccccc1)C1CCCCC1` (stereo not drawn) the value was inactive: 107%.
The value for `CP(=O)(Nc1ccccc1)Oc1ccc(F)cc1` (stereo not drawn) was inactive: 99%; that for `O=[N+]([O-])c1cc([N+](=O)[O-])c(OC2CCCCC2O)c([N+](=O)[O-])c1` (stereo not drawn) was inactive: 105%; that for `CCCCCOc1ccc(NP(C)(=O)Oc2ccc(Cl)cc2Cl)cc1` (stereo not drawn) was inactive: 91%.
Regarding `CCOC(=O)c1ccc(NP(C)(=O)Oc2ccc(F)cc2)cc1` (stereo not drawn), the binding response (% of control) is inactive: 96%.
The value for `COc1ccc(OP(C)(=O)Nc2ccc(SC(F)(F)F)cc2)cc1` (stereo not drawn) was inactive: 82%; that for `O=[N+]([O-])c1ccc(OP2(=O)COCCO2)cc1` (stereo not drawn) was inactive: 103%.
The value for `O=[N+]([O-])c1cc([N+](=O)[O-])c(NCC2CCS(=O)(=O)C2)c([N+](=O)[O-])c1` (stereo not drawn) was inactive: 98%; that for `Cc1cc(-c2cccc3ccccc23)c(C)cn1.O=[N+]([O-])c1cc([N+](=O)[O-])c(O)c([N+](=O)[O-])c1` was inactive: 97%; that for `COc1ccc(OP(C)(=O)Nc2cccc(Br)c2)cc1` (stereo not drawn) was inactive: 100%.
The value for `CN(C)CCOC(=O)C(O)(c1ccccc1)C1CCCCC1` (stereo not drawn) was inactive: 99%; that for `COc1ccc(NP(C)(=O)Oc2ccccc2OC)cc1` (stereo not drawn) was inactive: 101%.
As for `CP(=O)(Nc1ccc2c(c1)OCCO2)Oc1ccccc1` (stereo not drawn), the binding response (% of control) is inactive: 107%.
The value for `Cc1ccccc1NP(C)(=O)Nc1ccccc1C` was inactive: 103%.
For `CP(=O)(Nc1ccc(SC(F)(F)F)cc1)Oc1ccc(F)cc1` (stereo not drawn) the value was inactive: 91%.
For `CCOP(C)(=S)SCC(=O)NC(C)(CC)C(=O)O` (stereo not drawn) the value was inactive: 102%.
